# Reference: PubChem BioAssay AID926 (National Center for Advancing Translational Sciences (NCATS), 2007)
# By UniProt entry, the sequences of proteins in these tests, tags left out.
# UniProt P16473, whole entry, looked up: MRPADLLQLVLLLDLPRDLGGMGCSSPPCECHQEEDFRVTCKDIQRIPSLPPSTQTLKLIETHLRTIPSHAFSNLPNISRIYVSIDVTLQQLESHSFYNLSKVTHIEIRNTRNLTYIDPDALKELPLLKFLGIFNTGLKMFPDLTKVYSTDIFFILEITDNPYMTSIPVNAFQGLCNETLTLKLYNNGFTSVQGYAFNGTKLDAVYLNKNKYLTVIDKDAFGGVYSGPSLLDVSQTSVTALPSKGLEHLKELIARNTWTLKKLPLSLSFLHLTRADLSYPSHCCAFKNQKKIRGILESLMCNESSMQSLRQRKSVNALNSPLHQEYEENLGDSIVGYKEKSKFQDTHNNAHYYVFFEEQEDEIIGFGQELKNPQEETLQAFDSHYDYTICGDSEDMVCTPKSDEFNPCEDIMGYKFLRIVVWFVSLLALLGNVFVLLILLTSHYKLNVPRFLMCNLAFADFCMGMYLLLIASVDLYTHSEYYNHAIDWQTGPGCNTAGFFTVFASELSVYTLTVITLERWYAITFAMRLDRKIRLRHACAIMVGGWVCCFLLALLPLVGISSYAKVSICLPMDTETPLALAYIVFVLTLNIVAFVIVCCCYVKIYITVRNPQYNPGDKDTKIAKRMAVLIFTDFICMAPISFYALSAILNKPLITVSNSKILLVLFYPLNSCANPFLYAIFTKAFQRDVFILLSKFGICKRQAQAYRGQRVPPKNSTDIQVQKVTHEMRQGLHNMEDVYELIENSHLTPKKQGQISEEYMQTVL
# This is a selection; strong and weak results do not stand in their true shares. Results filed as inconclusive are left out. Calls of active or inactive are those of the source. Calls come from the whole dose curve; as a rule, active = well fitted activation curve with a large enough effect in the main read-out, with a control signal flat (not every such curve was filed as active); inconclusive = small, poorly fitted or top-dose-only effect, or a change in a side signal; inactive = no such curve, though single readings can be large or run the other way; reference of the percent scale not stated here.
# Biological target: Thyrotropin receptor (Homo sapiens) (UniProt P16473)
# Test: qHTS Assay for Agonists of the Thyroid Stimulating Hormone Receptor;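 note: the control signal comes from parental cells without the receptor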
# Conditions: HEK293-CNG-TSHR cells (CNG channel as cAMP sensor), membrane potential dye, cAMP
# Potency is the fitted concentration of half-maximal effect.
row,Compound,Potency
1,Cc1nn(-c2ccccc2)c2c1P(=O)(N1CCOCC1)N(C)C(c1ccccc1)=N2 (stereo unspecified),active: 25.1 µM
